The values below come from patent US20100047159A1, “METHOD FOR RELEASING HYDROGEN FROM AMMONIA BORANE” (Purdue Research Foundation, priority 2008, published 2010).

The conditions of data set [1]: room temperature (22° C.), stated as background; cited from earlier work.

Where two headings read alike, the source gives them in different places.

As to Ammonia borane [AB], in data set [1], the “solubility of AB in water” value was “about 26 wt %”. For the same substance, the “AB solubility in water” value runs as follows: (22° C. (room temperature)) 27.5 wt %; (70° C.) roughly 50 wt %.
